For 1 compound, IC50 results are on record in ChEMBL document CHEMBL3886247, “Aurora and FLT3 kinases modulators” (2015).

This assay has as its target T1, Aurora kinase A (Homo sapiens, UniProt O14965).
T1 sequence (O14965 whole entry): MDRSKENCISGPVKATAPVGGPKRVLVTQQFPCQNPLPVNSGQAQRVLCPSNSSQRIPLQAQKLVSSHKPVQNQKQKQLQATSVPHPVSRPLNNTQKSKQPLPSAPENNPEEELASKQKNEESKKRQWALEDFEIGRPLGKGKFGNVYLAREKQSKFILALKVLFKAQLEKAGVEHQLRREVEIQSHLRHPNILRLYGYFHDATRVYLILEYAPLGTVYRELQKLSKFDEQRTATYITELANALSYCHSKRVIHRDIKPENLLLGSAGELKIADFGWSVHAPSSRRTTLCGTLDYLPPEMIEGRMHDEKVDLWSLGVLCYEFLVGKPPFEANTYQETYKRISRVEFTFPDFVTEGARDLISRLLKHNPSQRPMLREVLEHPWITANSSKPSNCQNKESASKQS
Briefly: Inhibition Assay: Kinase assays were performed at Reaction Biology Corp., Malvern, Pa., USA, using the following general procedure:1) Prepare indicated substrate in freshly prepared Base Reaction Buffer (20 mM Hepes pH 7.5, 10 mM MgCl2, 1 mM EGTA, 0.02% Brij35, 0.02 mg/ml BSA, 0.1 mM Na3VO4, 2 mM DTT, 1% DMSO).2) Deliver cofactors (1.5 mM CaCl2, 16 ug/mL Calmodulin, 2 mM MnCl2) to the substrate solution above.3) Deliver indicated kinase into the substrate solution and gently mix4) Deliver varying concentrations of test compound in DMSO into the kinase reaction mixture.5) Deliver 33P-ATP (specific activity 0.01 uCi/uL final) into the reaction mixture to initiate the reaction.6) Incubate kinase reaction for 120 min at room temperature.7) Reactions are spotted onto P81 ion exchange filter paper (Whatman #3698-915)8) Unbound phosphate is removed by washing filters extensively in 0.75% phosphoric acid.9) 33P signal was determined using Typhoon phosphorimagers (GE Healthcare).

For orientation: IC50 means the concentration that inhibits the measured activity by half.

As for `CCc1ccc(-c2nc(C(N)=O)c(-c3ccc(N4CCNC(C)(C)C4)cc3)o2)c2cc[nH]c12`, the IC50 was determined as 74.3 nM.
